Yeast mating assay B: variants of the scFv Ab-14

Values reported by Li et al. 2023, doi:10.1038/s41467-023-39022-2 (FLAb copy).

Antigen: PDVDLGDISGINAS, a 14-residue peptide of the SARS-CoV-2 spike HR2 region.

Parent scFv Ab-14: VH joined to VL by three GGGGS repeats. Changes lie in the heavy chain CDRs alone.
VH: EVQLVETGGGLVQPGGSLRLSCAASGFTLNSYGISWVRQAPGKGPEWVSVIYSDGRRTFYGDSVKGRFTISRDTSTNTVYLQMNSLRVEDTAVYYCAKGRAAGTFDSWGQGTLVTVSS
VL: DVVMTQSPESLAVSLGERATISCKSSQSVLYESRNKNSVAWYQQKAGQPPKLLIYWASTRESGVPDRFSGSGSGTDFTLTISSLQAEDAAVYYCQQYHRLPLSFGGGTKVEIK

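The starting antibody came from a phage panning campaign against this peptide. Designed CDR sequences, proposed from the first random library and measured here. Group labels follow the data file (Ctrl: baseline library sampled from a position-specific scoring matrix, with some repeated check sequences; Rand: our label for a block that the file lists under HC and that is probably the random mutants of the ten best first-round binders; GP: Gaussian process model; GPLM: also part of the Gaussian process libraries; HC: hill climbing; Gen: genetic algorithm; Gibbs: Gibbs sampling; a sequence that several methods proposed may carry one label only). AlphaSeq pools MATa yeast showing the antibodies with MATalpha yeast showing the peptide. After mating in shaken culture at 30 °C for 16 h, diploids were selected and their barcode pairs sequenced. The ratio of observed to expected reads was calibrated, replicate by replicate, on BCL2-family standards whose Kd was known from biolayer interferometry. Each pool was mated in six replicate cultures.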

The parent's heavy chain CDRs are GFTLNSYGIS, VIYSDGRRTFYGDSVK, GRAAGTFDS; each variant's own CDRs replace them letter for letter.
Variants here have at most six changes.
The Kd shown is the geometric mean over detected replicates; a lower Kd is a better binder.
"nd" marks a missing value. The strain was present, yet no cells mated with the target were sequenced in any replicate, which points to weak or no binding.
In the paper, a design with two or fewer of six values counts as a poor binder.
Where one sequence has several entries in the source, the replicates are pooled.
Values of this round are not directly comparable with the first-round values of the same sequences.
Of ten entries with the parent sequence, four were seen in most replicates (averages 2.2 nM to 240 nM), three in one and three in none, so single entries are noisy.
Background: pairings of all heavy chain designs with three empty control strains gave a value in 1% of cases (median 120 nM, 5th percentile 7.0 nM). Values in that range, when seen in few replicates, are hard to tell from nonspecific mating. Also given: how often the same scFv was detected with the empty control strains.

GFTLNSYGIS / VIYSDGRRTFYGDDVK / GKAAGTFDS [Ctrl]: 57 nM (6 of 6 replicates; controls 1 of 18).
GFWLNEYGIS / VIYSDGRRTFYHDSVK / GRAAGTFDC [GP_HC]: nd (0 of 6 replicates; controls 0 of 18).
GFDLNSYGIS / VIYSDGRRTFYGDSVK / GVAAGTFDS [GPLM_Gibbs]: 2.3 nM (6 of 6 replicates; controls 0 of 18).
GFTLNSYGIS / VIYSDGRRTFYGDSVK / GIASGTFDS [Ctrl]: nd (0 of 6 replicates; controls 0 of 18).
GFTLNSYGIS / VIYSDGRRTFYGDSVK / SRAAGTFDS [Ctrl]: nd (0 of 6 replicates; controls 1 of 18).
GFTLNSYGIS / VIYSDGRRTFYSDSVK / GQAVGTFDV [GP_HC]: 3.4 nM (6 of 6 replicates; controls 0 of 18).
GFSVNSYGIS / VIYSDGRRTFYEDNVK / GRAAGTFDQ [Ctrl]: 2.3 nM (6 of 6 replicates; controls 0 of 18).
GFTLNEYGIS / VIYSDPRRTFYGDSVK / GRAAGTFDS [Ctrl]: nd (0 of 6 replicates; controls 0 of 18).
GFSLNSYGIS / VIYSDGRRTFYADSVK / GRTAGTFDA [GPLM_Gen]: 580 pM (6 of 6 replicates; controls 2 of 18).
GFTLNEYGIS / VIYSDGMRTFYSDSVK / GRAAGTFTS [GP_HC]: nd (0 of 6 replicates; controls 0 of 18).
GFSLNSYGIS / VIYSDGRRTFYADDVK / GRAAGTFDS [GPLM_Gen]: 3.9 nM (6 of 6 replicates; controls 0 of 18).
GFTLNQYGIS / VIYSDGMRTFYSDSVK / GQAAGTFDS [GPLM_HC]: nd (0 of 6 replicates; controls 0 of 18).
GFGLNEYGIS / VIYSDGRRTFYHDSVK / GRAAVTFDQ [GP_HC]: 34 nM (1 of 6 replicates; controls 0 of 18).
KFNLNSYGIS / VIYSDGRRTFYGDSVK / GRTAGTFDS [GPLM_Gen]: 23 nM (2 of 6 replicates; controls 0 of 18).
GFSLNSYGIS / VIYSDGRRTFYGDTVK / GRQAGTFDS [GP_Gibbs]: 17 nM (6 of 6 replicates; controls 0 of 18).
GFTLNEYGIS / VIYSIGRRTFYTDSVK / GRFAGTFDS [Rand]: nd (0 of 6 replicates; controls 0 of 18).
GFDLNEYGIS / VIYSDGRRTFYKDSVK / GRAAGTFDS [GP_HC]: 14 nM (5 of 6 replicates; controls 1 of 18).
GFTLNSYGIS / VIYSDGRRTFYADSVK / GTAAGTFDS [Ctrl+GPLM_Gen]: 20 nM (12 of 12 replicates; controls 0 of 36).
GFDLNSYGIS / VIYSDGRRTFYGDSVK / GWTAGTFDD [GP_Gen]: 9.7 nM (6 of 6 replicates; controls 0 of 18).
GFSLNSYGIS / VIYSDGRRTFYDDSVK / GKAAGTFDV [GP_Gibbs]: 1.5 nM (6 of 6 replicates; controls 0 of 18).
GFDLNSYGIS / VIYSDGRRTFYVDSVK / GKAAGTFDQ [GP_Gibbs]: 8.0 nM (6 of 6 replicates; controls 0 of 18).
GFSLNSYGIS / VIYSDGIRTFYDDSVK / GRADGTFDS [Ctrl]: nd (0 of 6 replicates; controls 0 of 18).
GFTLNSYGIS / VIYSDGQRTFYGDDVK / GRAAGTFDS [Ctrl]: 470 nM (3 of 6 replicates; controls 0 of 18).
GFVLNEYGIS / VIYSDGRRTFYGDSVK / GKTAGTFDV [GP_Gibbs]: 780 pM (4 of 6 replicates; controls 0 of 18).
GFLLNDYGIS / VIYSDGRRTFYKDSVK / GEAAGTFDS [GP_HC]: 12 nM (6 of 6 replicates; controls 0 of 18).
GFDLNSYGIS / VIYSDGRRTFYGDSVK / GRAAGWFNG [Rand]: nd (0 of 6 replicates; controls 0 of 18).
GFTLNSYGIS / VIYSDGRRTFYGDSVK / GRPAGTFDP [Ctrl]: 19 nM (6 of 6 replicates; controls 0 of 18).
GVTLNMYGIS / VIYSDGRRTFYIDSVK / GRAAGTFDI [Ctrl]: nd (0 of 6 replicates; controls 0 of 18).
GFNLNSYGIS / VIYSDGRRTAYGDSVK / GREAGTFDS [Ctrl]: 1.5 nM (6 of 6 replicates; controls 0 of 18).
GFTLNEYGVS / VIYSDGRRTFYGDSVR / GRAAGTFKS [Ctrl]: 310 nM (2 of 6 replicates; controls 0 of 18).
GFTLESYGIS / VIYADGRRTFYGDSVK / GRAAATFDS [Ctrl]: 43 nM (6 of 6 replicates; controls 1 of 18).
GFTLNSYGIS / VIYADGRRTFYGDSVK / GQAAGTFKS [GPLM_Gen]: 32 nM (4 of 6 replicates; controls 0 of 18).
GFSLNCYGIS / VIYSDGRRTFYADSVK / GRTAGTFDS [GPLM_Gen]: nd (0 of 6 replicates; controls 1 of 18).
GFSLNEYGIS / VIYSDGRRTFYGDSVK / GKAAGTFDE [GPLM_Gen]: 4.8 nM (6 of 6 replicates; controls 1 of 18).
GFDLNSYGIS / VIYSDGRRTFYGDSVK / GKAAGTFDN [GP_Gen]: 27 nM (6 of 6 replicates; controls 0 of 18).
GFELNSYGIS / VIYSDGRRTFYSDSVK / GREAGTFDS [GP_Gen]: 2.2 nM (6 of 6 replicates; controls 1 of 18).

From the list, the first 4 with no signal in any replicate:

Variant GFWLNEYGIS / VIYSDGRRTFYHDSVK / GRAAGTFDC [GP_HC] showed nd (0 of 6 replicates; controls 0 of 18).
Variant GFTLNSYGIS / VIYSDGRRTFYGDSVK / GIASGTFDS [Ctrl] showed nd (0 of 6 replicates; controls 0 of 18).
Variant GFTLNSYGIS / VIYSDGRRTFYGDSVK / SRAAGTFDS [Ctrl] showed nd (0 of 6 replicates; controls 1 of 18).
Variant GFTLNEYGIS / VIYSDPRRTFYGDSVK / GRAAGTFDS [Ctrl] showed nd (0 of 6 replicates; controls 0 of 18).